This is an account of results in paper PMC2410110, “Differential effects of ketoconazole on exposure to temsirolimus following intravenous infusion of temsirolimus” (British Journal of Cancer, 2008).

As a reminder, the Tmax is the time from dosing to the highest level.

This series is described as follows: Drug interaction study: whole blood pharmacokinetics of temsirolimus and sirolimus after single 5-mg i.v. temsirolimus alone or with oral ketoconazole. The format is in vivo. To be noted: human, intravenous, single 5 mg i.v. temsirolimus + ketoconazole 400 mg oral, mean (CV). Here is the method: In this open-label, non-randomised, single-centre, two-period, sequential study, subjects received temsirolimus (Torisel™; Wyeth Pharmaceuticals, Philadelphia, PA, USA) alone, followed by temsirolimus in combination with ketoconazole after a 14-day washout period. On study day 1 of the first period, subjects received 25 mg i.v. diphenhydramine, followed 30 min later by 5 mg i.v. temsirolimus over 30 min. Subjects remained in the clinical unit until the 72-h blood collection (study day 4) and returned for subsequent blood draws at designated time points over the next 4 days (study days 5–8). Study days 9 through 13 were part of the washout period. […]
The concentrations of temsirolimus and sirolimus in blood were measured simultaneously using validated liquid chromatography/tandem mass spectrometry combination procedures with deuterated internal standard ([Punt et al, 2003]). […] Analytes were detected by tandem mass spectrometry using atmospheric pressure chemical ionisation. The concentration of analytes was determined with calibration standards using linear least squares regression.
Pharmacokinetic parameters for temsirolimus were analysed for each subject for each study period using non-compartmental methods ([Jusko, 1992]). […] The Cmax and the time to reach Cmax (Tmax) were determined visually from the concentration–time curves. […]

As to `CO[C@H]1C[C@@H]2CC[C@@H](C)[C@@](O)(O2)C(=O)C(=O)N2CCCC[C@H]2C(=O)O[C@H]([C@H](C)C[C@@H]2CC[C@@H](O)[C@H](OC)C2)CC(=O)[C@H](C)/C=C(\C)[C@@H](O)[C@@H](OC)C(=O)[C@H](C)C[C@H](C)/C=C/C=C/C=C/1C` [Sirolimus], the time of peak concentration (Tmax) came out at 3 h.
